Assay results taken from publication PMC4902571.

Biological target: EGFR transmembrane helix fused to mCherry at the N-terminus and to EGFP at the C-terminus (human)
Test: single-molecule stepwise photobleaching (TIRF microscopy); EGFP fusions on the membrane of live Xenopus oocytes, without EGF; ~1 to ~5 molecules per um^2; room temperature; 20 Hz; 3% two-step baseline (Claudin-16) subtracted

## EGFR transmembrane helix fused to mCherry at the N-terminus and to EGFP at the C-terminus (domain or fragment)
  extent of dimerization (fraction of two-step photobleaching events): 13%
  stoichiometry N: 2
